US20040186081A1, “Naaladase inhibitors for treating opioid tolerance” (Guilford Pharmaceuticals Inc., priority 2003, published 2004)

Protein sequences, listed by entry. Tags and fused reporters are not part of them.
UniProt Q04609, whole entry: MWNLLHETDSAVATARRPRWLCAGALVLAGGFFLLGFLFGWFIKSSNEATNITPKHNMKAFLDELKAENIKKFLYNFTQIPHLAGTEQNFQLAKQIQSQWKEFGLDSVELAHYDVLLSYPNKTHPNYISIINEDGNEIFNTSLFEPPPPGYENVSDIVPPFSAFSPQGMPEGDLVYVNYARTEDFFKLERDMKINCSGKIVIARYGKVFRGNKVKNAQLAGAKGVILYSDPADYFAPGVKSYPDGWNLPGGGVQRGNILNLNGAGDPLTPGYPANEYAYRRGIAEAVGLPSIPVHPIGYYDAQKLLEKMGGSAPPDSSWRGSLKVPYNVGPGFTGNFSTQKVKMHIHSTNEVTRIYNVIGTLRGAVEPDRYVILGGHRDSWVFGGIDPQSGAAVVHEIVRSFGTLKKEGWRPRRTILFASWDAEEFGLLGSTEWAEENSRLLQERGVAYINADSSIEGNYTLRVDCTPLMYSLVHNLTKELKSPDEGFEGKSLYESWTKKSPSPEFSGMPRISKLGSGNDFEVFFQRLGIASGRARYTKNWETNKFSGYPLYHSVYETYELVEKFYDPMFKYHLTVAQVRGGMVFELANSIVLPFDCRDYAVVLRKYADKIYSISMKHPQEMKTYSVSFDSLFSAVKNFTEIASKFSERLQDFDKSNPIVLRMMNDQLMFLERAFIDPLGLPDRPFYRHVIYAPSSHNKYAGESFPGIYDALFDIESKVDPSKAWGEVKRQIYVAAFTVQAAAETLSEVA

Target: NAALADase (Homo sapiens, UniProt Q04609)
Experiment: In vitro inhibition of NAALADase activity
Assay type: biochemical

SMILES | IC50 [nM]
O=C(O)c1cc(CS)ccc1OCc1ccccc1 [5-(mercaptomethyl)-2-(phenylmethoxy)-benzoic acid] | 85
O=C(O)c1cccc(OC(CCCS)C(=O)O)c1 (centres unmarked) [3-(1-carboxy-4-mercaptobutoxy)-benzoic acid] | 16.3
